Laboratory results: patent US11723897B2, “Fatty acids as anti-inflammatory agents” (University of Pittsburgh—Of the Commonwealth System of …, priority 2009, dated 2023)

Tested on: EFAD formation in RAW264.7 cells
Experiment: Inhibitor study: EFAD formation in RAW264.7 cells activated with Kdo2 and IFNγ
Format: cell-based, murine
Conditions: RAW264.7 + Kdo2 + IFNγ, 20 h; ↓ decrease, ↑ increase, NE (not defined in patent)

CCCCC/C=C\C/C=C\C/C=C\C/C=C\CCCCOP(=O)(F)OC (stereo not drawn)
↓: Effect of inhibitor on EFAD-1 formation | Effect of inhibitor on EFAD-2 formation | Effect of inhibitor on EFAD-3 formation | Effect of inhibitor on EFAD-4 formation | Effect of inhibitor on EFAD-5 formation | Effect of inhibitor on EFAD-6 formation
